PubChem BioAssay (NCI)
Values joined by “and” are separate entries in the source; they are usually repeats but may differ in a detail not shown here. Equal values may be shown once.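 Cultured in 96-well plates, cells were exposed to test compound for 48 hours across five concentrations. GI50 marks 50% less growth. TGI: concentration producing complete growth inhibition.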

Experiments:
Test in all cases: NCI-60 cell line screen, 48 h
786-0 renal = system: 786-0 renal
A498 renal = system: A498 renal
A549 NSCLC = system: A549 NSCLC
ACHN renal = system: ACHN renal
BT-549 breast = system: BT-549 breast
CAKI-1 renal = system: CAKI-1 renal
CCRF-CEM leukemia = system: CCRF-CEM leukemia
COLO 205 colon = system: COLO 205 colon
DU-145 prostate = system: DU-145 prostate
EKVX NSCLC = system: EKVX NSCLC
HCC-2998 colon = system: HCC-2998 colon
HCT-116 colon = system: HCT-116 colon
HCT-15 colon = system: HCT-15 colon
HL-60(TB) leukemia = system: HL-60(TB) leukemia
HOP-62 NSCLC = system: HOP-62 NSCLC
HOP-92 NSCLC = system: HOP-92 NSCLC
HS 578T breast = system: HS 578T breast
HT29 colon = system: HT29 colon
IGROV1 ovarian = system: IGROV1 ovarian
K-562 leukemia = system: K-562 leukemia
KM12 colon = system: KM12 colon
LOX IMVI melanoma = system: LOX IMVI melanoma
M14 melanoma = system: M14 melanoma
MALME-3M melanoma = system: MALME-3M melanoma
MCF7 breast = system: MCF7 breast
MDA-MB-231 breast = system: MDA-MB-231 breast
MDA-MB-435 = system: MDA-MB-435
MDA-N = system: MDA-N
MOLT-4 leukemia = system: MOLT-4 leukemia
NCI-H226 lung = system: NCI-H226 lung
NCI-H23 lung = system: NCI-H23 lung
NCI-H322M lung = system: NCI-H322M lung
NCI-H460 lung = system: NCI-H460 lung
NCI-H522 lung = system: NCI-H522 lung
NCI/ADR-RES ovarian = system: NCI/ADR-RES ovarian
OVCAR-3 ovarian = system: OVCAR-3 ovarian
OVCAR-4 ovarian = system: OVCAR-4 ovarian
OVCAR-5 ovarian = system: OVCAR-5 ovarian
OVCAR-8 ovarian = system: OVCAR-8 ovarian
PC-3 prostate = system: PC-3 prostate
RPMI-8226 leukemia = system: RPMI-8226 leukemia
RXF 393 renal = system: RXF 393 renal
SF-268 CNS = system: SF-268 CNS
SF-295 CNS = system: SF-295 CNS
SF-539 CNS = system: SF-539 CNS
SK-MEL-2 melanoma = system: SK-MEL-2 melanoma
SK-MEL-28 melanoma = system: SK-MEL-28 melanoma
SK-MEL-5 melanoma = system: SK-MEL-5 melanoma
SK-OV-3 ovarian = system: SK-OV-3 ovarian
SN12C renal = system: SN12C renal
SNB-19 CNS = system: SNB-19 CNS
SNB-75 CNS = system: SNB-75 CNS
SR leukemia = system: SR leukemia
SW-620 colon = system: SW-620 colon
T-47D breast = system: T-47D breast
TK-10 renal = system: TK-10 renal
U251 CNS = system: U251 CNS
UACC-257 melanoma = system: UACC-257 melanoma
UACC-62 melanoma = system: UACC-62 melanoma
UO-31 renal = system: UO-31 renal

In the case of `CC(=O)O[C@H]1C[C@@H]2OC3C=C(C)CCC3(C)[C@@]1(C)[C@@]21CO1` (some centres not stated), the GI50 (786-0 renal) is reported as 0.469 µM and 0.456 µM, the TGI (786-0 renal) is reported as 4.2 µM and 3.43 µM and the GI50 (A498 renal) is reported as 0.335 µM and 0.651 µM. The TGI (A498 renal) was 1.29 µM and 2.71 µM, the GI50 (A549 NSCLC) was 0.322 µM and 0.365 µM and the TGI (A549 NSCLC) was 2.49 µM and 3.91 µM. The GI50 (ACHN renal) was 0.404 µM and 0.272 µM, the TGI (ACHN renal) was 2.15 µM and 1.49 µM and the GI50 (BT-549 breast) was 0.376 µM and 0.744 µM. The TGI (BT-549 breast) was 2.8 µM and 10.5 µM, the GI50 (CAKI-1 renal) was 0.594 µM and 0.507 µM and the TGI (CAKI-1 renal) was 4.17 µM and 6.2 µM. The GI50 (CCRF-CEM leukemia) was 0.235 µM and 0.0989 µM, the TGI (CCRF-CEM leukemia) was 0.978 µM and 1.58 µM and the GI50 (COLO 205 colon) was 0.188 µM and 0.153 µM. For the same molecule, the TGI (COLO 205 colon) was 0.372 µM and 0.426 µM, the GI50 (DU-145 prostate) was 0.44 µM and 0.359 µM and the TGI (DU-145 prostate) was 3.45 µM and 2.59 µM. The GI50 (EKVX NSCLC) was 0.491 µM and 0.39 µM, the TGI (EKVX NSCLC) was 3.99 µM and 2.25 µM and the GI50 (HCC-2998 colon) was 0.298 µM and 0.258 µM. The TGI (HCC-2998 colon) was 1.24 µM and 1.01 µM, the GI50 (HCT-116 colon) was 0.243 µM and 0.167 µM and the TGI (HCT-116 colon) was 1.82 µM and 1.33 µM. For the same molecule, the GI50 (HCT-15 colon) was 0.303 µM and 0.208 µM, the TGI (HCT-15 colon) was 2.71 µM and 1.66 µM and the GI50 (HL-60(TB) leukemia) was 0.252 µM and 0.167 µM. The GI50 (HOP-62 NSCLC) was 2.01 µM and 1.98 µM, the TGI (HOP-62 NSCLC) was 7.42 µM and 17.1 µM and the GI50 (HOP-92 NSCLC) was 0.218 µM and 0.408 µM. The TGI (HOP-92 NSCLC) was 0.948 µM and 3.23 µM, the GI50 (HS 578T breast) was 0.366 µM and 0.278 µM and the TGI (HS 578T breast) was 3.18 µM and 1.34 µM. The GI50 (HT29 colon) was 0.312 µM and 0.25 µM, the TGI (HT29 colon) was 1.61 µM and 2.29 µM and the GI50 (IGROV1 ovarian) was 0.486 µM and 0.276 µM. For the same molecule, the TGI (IGROV1 ovarian) was 4.78 µM and 2.05 µM, the GI50 (K-562 leukemia) was 0.201 µM and the TGI (K-562 leukemia) was 8.75 µM. For the same molecule, the GI50 (KM12 colon) was 0.359 µM and 0.277 µM, the TGI (KM12 colon) was 5.04 µM and 2.07 µM and the GI50 (LOX IMVI melanoma) was 0.156 µM and 0.058 µM. The TGI (LOX IMVI melanoma) was 0.653 µM and 0.229 µM, the GI50 (M14 melanoma) was 0.235 µM and 0.217 µM and the TGI (M14 melanoma) was 0.619 µM and 1.11 µM. The GI50 (MALME-3M melanoma) was 0.349 µM and 0.273 µM, the TGI (MALME-3M melanoma) was 2.17 µM and 1.23 µM and the GI50 (MCF7 breast) was 0.243 µM and 0.334 µM. For the same molecule, the GI50 (MDA-MB-231 breast) was 0.366 µM and 0.303 µM, the TGI (MDA-MB-231 breast) was 2.13 µM and 1.82 µM and the GI50 (MDA-MB-435) was 0.296 µM and 0.237 µM. The TGI (MDA-MB-435) was 1.29 µM and 1.51 µM, the GI50 (MDA-N) was 0.261 µM and the TGI (MDA-N) was 1.44 µM. For the same molecule, the GI50 (MOLT-4 leukemia) was 0.34 µM and 0.185 µM, the TGI (MOLT-4 leukemia) was 3.68 µM and 2.25 µM and the GI50 (NCI-H226 lung) was 0.302 µM and 0.244 µM. For the same molecule, the TGI (NCI-H226 lung) was 1.78 µM and 1.19 µM, the GI50 (NCI-H23 lung) was 0.3 µM and 0.506 µM and the TGI (NCI-H23 lung) was 1.5 µM and 2.72 µM. For the same molecule, the GI50 (NCI-H322M lung) was 0.379 µM and 0.429 µM, the TGI (NCI-H322M lung) was 3.71 µM and 3.5 µM and the GI50 (NCI-H460 lung) was 0.32 µM and 0.102 µM. For the same molecule, the TGI (NCI-H460 lung) was 2.4 µM and 0.453 µM, the GI50 (NCI-H522 lung) was 0.352 µM and 0.278 µM and the TGI (NCI-H522 lung) was 1.7 µM and 0.88 µM. For the same molecule, the GI50 (NCI/ADR-RES ovarian) was 0.359 µM and 0.307 µM, the TGI (NCI/ADR-RES ovarian) was 3.5 µM and 2.14 µM and the GI50 (OVCAR-3 ovarian) was 0.419 µM and 0.449 µM. The TGI (OVCAR-3 ovarian) was 2.48 µM and 4.38 µM, the GI50 (OVCAR-4 ovarian) was 0.265 µM and 0.316 µM and the TGI (OVCAR-4 ovarian) was 0.939 µM and 3.31 µM. The GI50 (OVCAR-5 ovarian) was 0.938 µM and 1.23 µM, the TGI (OVCAR-5 ovarian) was 6.28 µM and 8.55 µM and the GI50 (OVCAR-8 ovarian) was 0.334 µM and 0.264 µM. The TGI (OVCAR-8 ovarian) was 4.31 µM and 1.64 µM, the GI50 (PC-3 prostate) was 0.625 µM and 0.797 µM and the TGI (PC-3 prostate) was 7.08 µM and 5.61 µM. For the same molecule, the GI50 (RPMI-8226 leukemia) was 0.306 µM and 0.269 µM, the TGI (RPMI-8226 leukemia) was 1.45 µM and 1.11 µM and the GI50 (RXF 393 renal) was 0.266 µM and 0.331 µM. The TGI (RXF 393 renal) was 1.52 µM and 1.58 µM, the GI50 (SF-268 CNS) was 0.371 µM and 0.343 µM and the TGI (SF-268 CNS) was 3.48 µM and 2.09 µM. The GI50 (SF-295 CNS) was 0.548 µM and 0.738 µM, the TGI (SF-295 CNS) was 3.52 µM and 5.11 µM and the GI50 (SF-539 CNS) was 0.267 µM and 0.284 µM. For the same molecule, the TGI (SF-539 CNS) was 0.653 µM and 1.02 µM, the GI50 (SK-MEL-2 melanoma) was 0.301 µM and 0.33 µM and the TGI (SK-MEL-2 melanoma) was 0.911 µM and 1.91 µM. For the same molecule, the GI50 (SK-MEL-28 melanoma) was 0.256 µM and 0.233 µM, the TGI (SK-MEL-28 melanoma) was 0.774 µM and 2.4 µM and the GI50 (SK-MEL-5 melanoma) was 0.161 µM and 0.123 µM. The TGI (SK-MEL-5 melanoma) was 0.368 µM and 0.783 µM, the GI50 (SK-OV-3 ovarian) was 0.431 µM and 0.627 µM and the TGI (SK-OV-3 ovarian) was 4.57 µM and 6.17 µM. The GI50 (SN12C renal) was 0.371 µM and 0.495 µM, the TGI (SN12C renal) was 4.76 µM and 2.84 µM and the GI50 (SNB-19 CNS) was 0.267 µM and 0.321 µM. For the same molecule, the TGI (SNB-19 CNS) was 4.11 µM and 10.1 µM, the GI50 (SNB-75 CNS) was 0.278 µM and 0.231 µM and the TGI (SNB-75 CNS) was 1.63 µM and 1.65 µM. For the same molecule, the GI50 (SR leukemia) was 0.378 µM and 0.0935 µM, the GI50 (SW-620 colon) was 0.282 µM and 0.279 µM and the TGI (SW-620 colon) was 2.63 µM and 24.1 µM. The GI50 (T-47D breast) was 0.257 µM and 0.262 µM, the TGI (T-47D breast) was 1.13 µM and 3.1 µM and the GI50 (TK-10 renal) was 1.17 µM and 0.457 µM. For the same molecule, the TGI (TK-10 renal) was 7.16 µM and 5.85 µM, the GI50 (U251 CNS) was 0.259 µM and 0.36 µM and the TGI (U251 CNS) was 1.34 µM and 6.02 µM. For the same molecule, the GI50 (UACC-257 melanoma) was 0.291 µM and 0.253 µM, the TGI (UACC-257 melanoma) was 1.26 µM and 2.04 µM and the GI50 (UACC-62 melanoma) was 0.31 µM and 0.275 µM. The TGI (UACC-62 melanoma) was 1.59 µM and 2.2 µM, the GI50 (UO-31 renal) was 0.729 µM and 0.521 µM and the TGI (UO-31 renal) was 6.6 µM and 2.35 µM.
